Yeast mating assay 1: variants of the scFv Ab-14

Values reported by Engelhart et al. 2022, doi:10.1038/s41597-022-01779-4 (FLAb copy).

The target is the same throughout: PDVDLGDISGINAS, from the HR2 region of SARS-CoV-2 spike.

Ab-14 is the parent antibody, in scFv form: VH, then a (GGGGS)3 linker, then VL. The light chain is unchanged in all variants.
VH: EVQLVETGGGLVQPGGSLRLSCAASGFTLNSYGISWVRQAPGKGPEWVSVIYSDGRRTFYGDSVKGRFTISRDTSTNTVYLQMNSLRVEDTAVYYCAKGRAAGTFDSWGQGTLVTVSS
VL: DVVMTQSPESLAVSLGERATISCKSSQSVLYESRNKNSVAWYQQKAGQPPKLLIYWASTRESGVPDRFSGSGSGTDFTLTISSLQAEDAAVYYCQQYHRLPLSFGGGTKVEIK

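The starting antibody came from a phage panning campaign against this peptide. The library (AAYL49) carries one to three amino acid substitutions per variant, with no insertions or deletions. In AlphaSeq, yeast of one mating type display the scFv and yeast of the other type display the target. Mating (16 h, 30 °C) was followed by selection of diploids and sequencing of their barcodes. Each replicate has its own calibration line, from reference interactions of the BCL2 family. Each pool was mated in three replicate cultures.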

Variants are written as CDR1, CDR2 and CDR3 of the heavy chain (limits as in the source). Parent: GFTLNSYGIS, VIYSDGRRTFYGDSVK, GRAAGTFDS. All variants listed here change T58 of the VH, counted from its first residue. Numbers give log10(Kd / nM), so 0 is 1 nM and 3 is 1 µM. Smaller is tighter. Averages over replicates are reported, and they cover detected replicates only. "no signal" means that the variant was in the library but no mating with the target was seen in any replicate; the authors take this as a sign of poor binding, and no number exists.

| CDR-H1 | CDR-H2 | CDR-H3 | mean log10 Kd (nM) | detected | control signals |
|---|---|---|---|---|---|
| GFTLNSYGIS | VIYSHGRRSFYGDSVK | GHAAGTFDS | 6.60 | 1/3 | 6/9 |
| GFTLNSYGIS | VIYSDTRRWFYGDSVK | GRAAITFDS | no signal | 0/3 | 3/9 |
| GFTLNSYGIS | VIYSDGRCFFYGDHVK | GRAAGTFDS | no signal | 0/3 | 0/9 |
| GFTLNSYGMS | VIYSDGRRWFYGDSVK | GRAAATFDS | no signal | 0/3 | 1/9 |
| GFTMNSYGIS | VIYSDGRGRFYGDSVK | GRAAGTFDS | no signal | 0/3 | 0/9 |
| GFTLTSYGIS | VIYSDGRRIFYHDSVK | GRAAGTFDS | no signal | 0/3 | 1/9 |
| GFTYNSYGIS | VIYSDGRRPFYGDSVK | GFAAGTFDS | no signal | 0/3 | 1/9 |
| GFTLNSYGIS | VIYSDGRRVFYGDSVK | GRCAGTFDH | no signal | 0/3 | 0/9 |
| GFTLNSYGIS | VIYSDGRRPFYGDSVK | NRAAGTGDS | 5.54 | 1/3 | 2/9 |
| GFTLNSYGIS | VIYSAGRRCFMGDSVK | GRAAGTFDS | 5.40 | 1/3 | 1/9 |
| GFTLNSYEIS | VIYSDGRYYFYGDSVK | GRAAGTFDS | 4.43 | 2/3 | 3/9 |
| GFTLNSYGIS | VIYSDGRHNFYGDSVK | GRAAGTFDL | 3.36 | 2/3 | 1/9 |
| GFTLNSYGIS | VIYSDGRRHFYGDSVT | GRAAGVFDS | no signal | 0/3 | 0/9 |
| GFTLNSQGIS | DIYSDGRRNFYGDSVK | GRAAGTFDS | 4.93 | 2/3 | 4/9 |
| GFTLNSVGIS | VRYSDGRRCFYGDSVK | GRAAGTFDS | no signal | 0/3 | 0/9 |
| GFTLNSYGIS | VIHSDGRRHFYGDSVK | GRAAGTFDI | no signal | 0/3 | 0/9 |
| KFTLNHYGIS | VIYSDGRRQFYGDSVK | GRAAGTFDS | 2.64 | 3/3 | 2/9 |
| GGTLNSYGIS | VIYSDGRRFFYGDSVK | GRIAGTFDS | 3.60 | 3/3 | 3/9 |
| GFTLNDYGIS | VIYSDGRRLFYGDSVK | GRAAGTFDS | 0.41 | 3/3 | 1/9 |
| GFTLNSYGIS | VIYSDGRRDFYGDSVN | GRAAGTFKS | 3.87 | 1/3 | 2/9 |
| GFTLNSYGIS | VIYSDGRIHFYGTSVK | GRAAGTFDS | 3.84 | 1/3 | 1/9 |
| GFTLLSYGIS | VIYSDGRRFFYGDSNK | GRAAGTFDS | no signal | 0/3 | 2/9 |
| TFTLNSYGIS | VIYSDGRRSFYGDSVK | GRAAGTFKS | 4.15 | 1/3 | 1/9 |
| GRTLNSYGIS | VIYSDGRRRFYGDWVK | GRAAGTFDS | no signal | 0/3 | 1/9 |
| GFTLNSQGNS | VIYSDGRRFFYGDSVK | GRAAGTFDS | 3.82 | 1/3 | 2/9 |
| LFTLNSYGIS | VIYSDGRRMFYGDSVK | GRAAGTFDS | 3.68 | 3/3 | 6/9 |
| GYALNSYGIS | VIYSDGRRCFYGDSVK | GRAAGTFDS | 4.12 | 1/3 | 2/9 |
| GFTLNSYGIS | VITSDGRRKFYGDSVK | GRAAKTFDS | 5.82 | 1/3 | 5/9 |
| GFTLNSYGIS | VIYSDGRWRFYGDSVK | GRAMGTFDS | no signal | 0/3 | 2/9 |
| GFTLNSYGES | VIYSDGRHGFYGDSVK | GRAAGTFDS | 5.15 | 1/3 | 5/9 |
| GFTLNSYGIS | VIYSMGRRPFYGDSVK | GRAAGTFDS | no signal | 0/3 | 0/9 |
| GFTLNSYGIS | VIYVDGRRQFAGDSVK | GRAAGTFDS | 2.37 | 1/3 | 1/9 |
| CFTLNSYGIS | VIYSDGRRYFYGDSGK | GRAAGTFDS | no signal | 0/3 | 0/9 |
| GFTLNSYGIS | VIYSDGRYSFYGDWVK | GRAAGTFDS | 5.06 | 1/3 | 1/9 |
| GFYLNSYGIS | VIYRDGRRPFYGDSVK | GRAAGTFDS | 4.72 | 2/3 | 4/9 |
| GFTMNSYGIS | VIYSDGRRYFYGDSVK | GRAAGTGDS | 3.80 | 1/3 | 1/9 |
| GFTLNSYGIS | KIYSDGRRRFYGDSNK | GRAAGTFDS | 3.99 | 1/3 | 4/9 |
| GFTLNSYCIS | VIYSDGRRNFGGDSVK | GRAAGTFDS | no signal | 0/3 | 0/9 |
| GFTLNSYEIS | VIYSDGRRHFYGDSVK | GRAARTFDS | no signal | 0/3 | 0/9 |
| GFTLNSYGIS | VIYSDGRRGFYGQSVT | GRAAGTFDS | no signal | 0/3 | 0/9 |
| GFTLNSDGIS | VIYSDGRRGFYGDSVK | GRAAGTFDH | no signal | 0/3 | 3/9 |
| GFTLNSYGIS | VIYSDGRRHFYGDHVK | GRAAGTFDA | no signal | 0/3 | 0/9 |
| GFTLNSYGIS | VIYSDLRRMFYKDSVK | GRAAGTFDS | no signal | 0/3 | 0/9 |
| GFTLNSYLIS | VIYSDGRRYFYGDSVK | GRAARTFDS | 4.25 | 1/3 | 1/9 |
| GFPLNSYGIC | VIYSDGRRPFYGDSVK | GRAAGTFDS | 4.29 | 2/3 | 0/9 |
| GFTLNSYGIS | VIYSDGRRPFYGDSWK | GRAAGTFDS | no signal | 0/3 | 2/9 |
| GFTLNSYGIS | VIYSDGRRKFYGDSVK | GRAARTPDS | no signal | 0/3 | 1/9 |
| GFTLNSYGIS | VIWSDGRRRFYFDSVK | GRAAGTFDS | 4.85 | 1/3 | 2/9 |
| GFTWNSYGNS | VIYSDGRRRFYGDSVK | GRAAGTFDS | no signal | 0/3 | 0/9 |
| GFTLNSYGIS | VAYSDGRRKFYGDSRK | GRAAGTFDS | no signal | 0/3 | 0/9 |
| GETLNSYGIS | VIYSDGRRDFYGDSVK | GWAAGTFDS | no signal | 0/3 | 1/9 |
| GFTLNSYGIS | VIYVDGRRMFYGDSVK | GRAAGTFDS | 2.69 | 3/3 | 6/9 |
| GFTLNSYGIS | VIYSDGKRIFYGDSVK | GRAAGTFDS | 1.16 | 3/3 | 4/9 |
| GSTLNSYGIS | VIYSDGRRWFYQDSVK | GRAAGTFDS | 3.35 | 2/3 | 3/9 |
| GFTLNSYGIS | VIYSDGRRGFFGPSVK | GRAAGTFDS | no signal | 0/3 | 0/9 |
| GFTLNSSGIS | VIYSDGRRVFYGDSVK | GRGAGTFDS | 3.98 | 2/3 | 4/9 |
| GFTLNSYGIS | VIYSDGRRMLYGDSVK | GAAAGTFDS | 2.73 | 3/3 | 3/9 |
| GFTLNSYGIS | VIYSDGRRPFYMDSVK | GRANGTFDS | 4.26 | 1/3 | 1/9 |
| GSTLNSYGIS | VIHSDGRRKFYGDSVK | GRAAGTFDS | 4.44 | 1/3 | 2/9 |

The first 5 entries again:

| CDR-H1 | CDR-H2 | CDR-H3 | mean log10 Kd (nM) | detected | control signals |
|---|---|---|---|---|---|
| GFTLNSYGIS | VIYSHGRRSFYGDSVK | GHAAGTFDS | 6.60 | 1/3 | 6/9 |
| GFTLNSYGIS | VIYSDTRRWFYGDSVK | GRAAITFDS | no signal | 0/3 | 3/9 |
| GFTLNSYGIS | VIYSDGRCFFYGDHVK | GRAAGTFDS | no signal | 0/3 | 0/9 |
| GFTLNSYGMS | VIYSDGRRWFYGDSVK | GRAAATFDS | no signal | 0/3 | 1/9 |
| GFTMNSYGIS | VIYSDGRGRFYGDSVK | GRAAGTFDS | no signal | 0/3 | 0/9 |

In this assay the parent's reference entry averaged 0.65; its copy inside this library read 4.11 (one replicate of three). Empty control strains, which show no peptide, gave a signal in 15% of pairings with library AAYL49; the median was 4.06 and 95% of these signals were weaker than 2.83. No background was subtracted. Also given: how often the same scFv was detected with the empty control strains.